scFv variants of Ab-14 (heavy chain) against a SARS-CoV-2 spike peptide

Reference: Engelhart et al. 2022, doi:10.1038/s41597-022-01779-4. File: FLAb, binding data.

Binding partner: SARS-CoV-2 spike HR2 peptide, sequence PDVDLGDISGINAS.

The variants keep the light chain, the linker and the frameworks of Ab-14 (scFv order VH, a 15-residue (Gly4Ser)3 linker, VL).
VH: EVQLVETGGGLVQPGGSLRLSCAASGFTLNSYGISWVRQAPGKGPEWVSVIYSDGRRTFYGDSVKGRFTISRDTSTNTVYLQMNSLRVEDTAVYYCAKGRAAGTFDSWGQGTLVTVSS
VL: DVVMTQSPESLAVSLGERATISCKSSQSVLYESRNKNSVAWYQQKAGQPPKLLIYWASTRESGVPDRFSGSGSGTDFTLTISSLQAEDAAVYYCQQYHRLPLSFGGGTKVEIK

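Library AAYL49 holds single substitutions and randomly drawn double and triple substitutions in the CDRs. AlphaSeq pools MATa yeast showing the antibodies with MATalpha yeast showing the peptide. Binding brings cells together so that they mate, and sequencing counts the barcode pairs among the diploids. The ratio of observed to expected reads was calibrated, replicate by replicate, on BCL2-family standards whose Kd was known from biolayer interferometry. Mating was done three times.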

Substitutions are numbered in sequence along the VH above, starting at 1 (not Kabat).
Scale: log10 of Kd in nM, estimated from mating counts; low values are strong binders.
Averages over replicates are reported, and they cover detected replicates only.
An entry "nd" has no value in the source: the pair was not observed among the diploids in that replicate. This suggests poor binding but is not conclusive.
Nonspecific signal, from three strains lacking the peptide, appeared in 15% of pairings of library AAYL49, centred on 4.06 (5% of these signals below 2.83); values are not corrected for it. For each scFv, signals with the empty controls are counted beside the result, with their mean in brackets.

changes,"replicates, log10 nM",mean log10 Kd (nM),signal with controls
Y52T G55A G99A,nd 4.13 nd,4.13,4 of 9 (3.88)
V50L V64E,nd nd nd,nd,5 of 9 (3.92)
I34G I51G A102F,nd nd nd,nd,0 of 9
G99S,5.66 nd nd,5.66,1 of 9 (4.23)
R56F A101T S107I,0.85 0.93 0.97,0.92,0 of 9
G26I R56A K65Y,nd nd nd,nd,0 of 9
T58K K65Y R100G,2.22 1.80 2.51,2.18,0 of 9
I51V S63Q T104G,nd nd nd,nd,1 of 9 (4.26)
G55N R57S T104P,4.75 4.53 nd,4.64,2 of 9 (4.26)
F27V I34Y G61R,nd nd 5.52,5.52,5 of 9 (4.18)
T28R T58D,2.81 3.01 3.23,3.02,0 of 9
S35W F59Q Y60D,nd nd nd,nd,0 of 9
S35L R57V S107R,5.95 nd nd,5.95,2 of 9 (3.67)
F27S T58W G61Q,3.34 nd 3.36,3.35,3 of 9 (4.23)
F27C I51R K65F,nd nd nd,nd,2 of 9 (4.07)
F27K T28Y Y32E,nd nd 2.84,2.84,1 of 9 (3.20)
Y52F Y60M D106I,nd nd nd,nd,0 of 9
S35A A102P,3.37 3.15 nd,3.26,2 of 9 (3.25)
G55S K65N A101E,nd nd 2.86,2.86,0 of 9
I34C D54Y K65A,5.90 nd nd,5.90,3 of 9 (4.17)
T28C V64W G103E,nd nd nd,nd,1 of 9 (4.68)
T58R V64F,1.70 1.78 1.54,1.67,0 of 9
N30M Y32L S63F,nd nd nd,nd,2 of 9 (4.21)
S31E Y60C F105K,2.83 2.30 2.76,2.63,1 of 9 (4.00)
L29W Y52M S107F,nd nd nd,nd,0 of 9
F27A S35V G55T,nd 4.57 nd,4.57,3 of 9 (4.24)
N30R G55A T58N,nd nd nd,nd,2 of 9 (3.65)
Y32K D62F K65L,4.13 nd 3.64,3.89,2 of 9 (3.52)
Y32F I51Q R100S,nd nd nd,nd,0 of 9
T28P G55P A101T,2.61 2.51 2.41,2.51,1 of 9 (2.61)
S35P V50L G103Q,nd nd nd,nd,0 of 9
I34F S63R G103F,4.98 nd nd,4.98,1 of 9 (3.52)
G33S T58L,nd nd nd,nd,2 of 9 (3.33)
G55A A101C,5.25 nd 3.57,4.41,2 of 9 (3.68)
R100Y D106E,3.10 2.25 1.89,2.41,0 of 9
F27K I51C F59A,nd nd nd,nd,2 of 9 (2.83)
S35G A101F T104M,nd nd nd,nd,2 of 9 (5.50)
S31Y G55W K65W,nd 3.40 4.76,4.08,7 of 9 (4.47)
V50Q Y60A G61H,nd nd nd,nd,3 of 9 (5.08)
S53W G99F R100N,nd nd nd,nd,1 of 9 (4.04)
V50I Y52E S107Y,nd 3.94 4.06,4.00,2 of 9 (3.77)
I34G G61H K65V,nd nd 4.72,4.72,3 of 9 (4.26)
I34Y F105Q S107Q,nd nd nd,nd,0 of 9
F27W R56K G103W,1.00 1.23 1.36,1.20,1 of 9 (3.95)
I51V R100T,1.36 1.62 1.50,1.49,1 of 9 (3.39)
S31E I34K G61L,4.81 nd nd,4.81,3 of 9 (3.75)
G61R,0.69 0.84 0.67,0.73,0 of 9
I51M R100W G103N,nd nd nd,nd,0 of 9
Y32D G99N,nd nd nd,nd,1 of 9 (4.40)
Y32G G33N D106E,nd 2.76 nd,2.76,0 of 9

Top 8 of the variants detected in all replicates, tightest first:

{"changes": "G61R", "replicates, log10 nM": "0.69 0.84 0.67", "mean log10 Kd (nM)": "0.73", "signal with controls": "0 of 9"}
{"changes": "R56F A101T S107I", "replicates, log10 nM": "0.85 0.93 0.97", "mean log10 Kd (nM)": "0.92", "signal with controls": "0 of 9"}
{"changes": "F27W R56K G103W", "replicates, log10 nM": "1.00 1.23 1.36", "mean log10 Kd (nM)": "1.20", "signal with controls": "1 of 9 (3.95)"}
{"changes": "I51V R100T", "replicates, log10 nM": "1.36 1.62 1.50", "mean log10 Kd (nM)": "1.49", "signal with controls": "1 of 9 (3.39)"}
{"changes": "T58R V64F", "replicates, log10 nM": "1.70 1.78 1.54", "mean log10 Kd (nM)": "1.67", "signal with controls": "0 of 9"}
{"changes": "T58K K65Y R100G", "replicates, log10 nM": "2.22 1.80 2.51", "mean log10 Kd (nM)": "2.18", "signal with controls": "0 of 9"}
{"changes": "R100Y D106E", "replicates, log10 nM": "3.10 2.25 1.89", "mean log10 Kd (nM)": "2.41", "signal with controls": "0 of 9"}
{"changes": "T28P G55P A101T", "replicates, log10 nM": "2.61 2.51 2.41", "mean log10 Kd (nM)": "2.51", "signal with controls": "1 of 9 (2.61)"}

In this assay the parent's reference entry averaged 0.65; its copy inside this library read 4.11 (one replicate of three).